# Assay results reported in paper PMC9496151, “Expression and Function of ABC Transporters in Human Alveolar Epithelial Cells” (Biomolecules, 2022).
# Experiments:
# ABCG2/BCRP [1] = assay: Bidirectional transport of Bodipy FL Prazosin (BCRP activity) in EpiAlveolar; details: 3 µM Bodipy™ FL Prazosin
# Experimental: (§1) The activity of ABC transporters was determined by measuring the apical-to-basolateral (AB) and basolateral-to-apical (BA) fluxes of specific substrates. To this aim, cell monolayers were washed twice in HBSS and equilibrated for 30 min in the same solution (pH 7.4, 37 °C). […] After 0, 30, 60, and 120 min, aliquots of the solution were collected from the opposite chamber (receiver chamber) and replaced with the same volume of HBSS. The fluxes were determined by reading fluorescence with an EnSpire® Multimode Plate Reader (Perkin Elmer), or radioactivity with MicroBeta^2 liquid scintillation spectrometer. The apparent permeability coefficient (Papp) was calculated from the data obtained.
# (§2) Efflux ratio (ER) was calculated as the ratio between Papp measured for BA and AB fluxes, while uptake ratio (UR) was the ratio between Papp measured for AB and BA fluxes.
# ABCG2/BCRP [2] = assay: Bidirectional transport of Bodipy FL Prazosin (BCRP activity) in hAELVi; details: 3 µM Bodipy™ FL Prazosin
# Experimental: as §1, §2
substance,measurement,setting,value
Bodipy™ FL Prazosin,"Papp, AB versus BA fluxes",ABCG2/BCRP [1],almost identical
same,"Papp, AB versus BA fluxes",ABCG2/BCRP [2],almost identical
